21 molecules from patent US20220380768A1 (TALLAC THERAPEUTICS, published 2022) can be followed below.

Sequences and labels used below:
B1: TNT84 (antibody, human IgG1, kappa, V domains shown)
VH: QVQLQESGPGLVKPSDTLSLTCTVSGFAFSIYDMSWIRQPPGKGLEWIAYISSGGGTTYYNPSLKSRVTISVDTSKNQFSLKLSSVTAADTAVYYCARHSGYGTHWGVLFAYWGRGTLVTVSS
VL: EIVLTQSPATLSLSPGERATLSCRASQDIHGYLNWYQQKPGQAPRLLIYYTSILHSGIPARFSGSGPGTDFTLTISSLEPEDFAVYYCQQGNTLPWTFGGGTKLEIKR
B2: TNT76 (antibody, human IgG1, kappa, V domains shown)
VH: B1 VH
VL: DIQMTQSPSSVSASVGDRVTITCRASQDIHGYLAWYQQKPGKAPKLLIYYTSSLQSGVPSRFSGSGSGTDFTLTISSLQPEDFATYYCQQGNTLPWTFGQGTKLEIKR
B3: TNT80 (antibody, human IgG1, kappa, V domains shown)
VH: B1 VH
VL: B2 VL with V11L, D28S, H30S, G31S, A34N, Y50A, T51A
B4: TNT81 (antibody, human IgG1, kappa, V domains shown)
VH: EVQLVESGGGLVQPGGSLRLSCAASGFAFSIYDMSWVRQAPGKGLEWVAYISSGGGTTYYPDTVKGRFTISRDNSKNTLYLQMNSLRAEDTAVYYCARHSGYGTHWGVLFAYWGRGTLVTVSS
VL: B1 VL
B5: TNT87 (antibody, human IgG1, kappa, V domains shown)
VH: EVQLVESGGGLVQPGGSLRLSCAASGFTFSSYEMNWVRQAPGKGLEWVSYISSSGSTIYYADSVKGRFTISRDNAKNSLYLQMNSLRAEDTAVYYCARHSGYGTHWGVLFAYWGRGTLVTVSS
VL: DIVMTQTPLSLSVTPGQPASISCRASQDIHGYLNWYQQKPGQSPQLLIYYTSILHSGVPDRFSGSGSGTDFTLKISRVEAEDVGVYFCQQGNTLPWTFGGGTKLEIKR
B6: TNT70 (antibody, human IgG1, kappa, V domains shown)
VH: B4 VH with E1Q, V5L, L11V, S35N, A49S, Y50A, P61A, T63S, S75A, T78S
VL: B2 VL with V11L, A34N, S53I, Q55H, Y87F
B7: TNT72 (antibody, human IgG1, kappa, V domains shown)
VH: B1 VH
VL: B2 VL with V11L, A34N, S53I, Q55H, Y87F
B8: TNT79 (antibody, human IgG1, kappa, V domains shown)
VH: B5 VH
VL: B2 VL with V11L, D28S, H30S, G31S, A34N, Y50A, T51A
B9: TNT71 (antibody, human IgG1, kappa, V domains shown)
VH: B5 VH
VL: B2 VL with V11L, A34N, S53I, Q55H, Y87F
B10: TNT70 variant RL1 N92A (antibody, V domains shown)
VH: B4 VH with E1Q, V5L, L11V, S35N, A49S, Y50A, P61A, T63S, S75A, T78S
VL: DIQMTQSPSSLSASVGDRVTITCRASQDIHGYLNWYQQKPGKAPKLLIYYTSILHSGVPSRFSGSGSGTDFTLTISSLQPEDFATYFCQQGATLPWTFGQGTKLEIK
B11: TNT70 variant RL1 N92H (antibody, V domains shown)
VH: B4 VH with E1Q, V5L, L11V, S35N, A49S, Y50A, P61A, T63S, S75A, T78S
VL: B10 VL with A92H
B12: TNT70 variant RL1 N92D (antibody, V domains shown)
VH: B4 VH with E1Q, V5L, L11V, S35N, A49S, Y50A, P61A, T63S, S75A, T78S
VL: B10 VL with A92D
B13: TNT70 variant RL1 N92C (antibody, V domains shown)
VH: B4 VH with E1Q, V5L, L11V, S35N, A49S, Y50A, P61A, T63S, S75A, T78S
VL: B10 VL with A92C
B14: TNT70 variant RL1 N92V (antibody, V domains shown)
VH: B4 VH with E1Q, V5L, L11V, S35N, A49S, Y50A, P61A, T63S, S75A, T78S
VL: B10 VL with A92V
B15: TNT70 variant RL1 N92T (antibody, V domains shown)
VH: B4 VH with E1Q, V5L, L11V, S35N, A49S, Y50A, P61A, T63S, S75A, T78S
VL: B10 VL with A92T
B16: TNT70 variant RL1 N92W (antibody, V domains shown)
VH: B4 VH with E1Q, V5L, L11V, S35N, A49S, Y50A, P61A, T63S, S75A, T78S
VL: B10 VL with A92W
B17: TNT70 variant RL1 N92P (antibody, V domains shown)
VH: B4 VH with E1Q, V5L, L11V, S35N, A49S, Y50A, P61A, T63S, S75A, T78S
VL: B10 VL with A92P
B18: TNT70 variant RL1 N92E (antibody, V domains shown)
VH: B4 VH with E1Q, V5L, L11V, S35N, A49S, Y50A, P61A, T63S, S75A, T78S
VL: B10 VL with A92E
B19: TNT70 variant RL1 N92S (antibody, V domains shown)
VH: B4 VH with E1Q, V5L, L11V, S35N, A49S, Y50A, P61A, T63S, S75A, T78S
VL: B10 VL with A92S
B20: TNT70 variant RL1 N92F (antibody, V domains shown)
VH: B4 VH with E1Q, V5L, L11V, S35N, A49S, Y50A, P61A, T63S, S75A, T78S
VL: B10 VL with A92F
B21: TNT70 variant RL1 N92G (antibody, V domains shown)
VH: B4 VH with E1Q, V5L, L11V, S35N, A49S, Y50A, P61A, T63S, S75A, T78S
VL: B10 VL with A92G

Changes are numbered by the printed parent chain. Names and notes keep the numbering of the source.

The first test concerns the target T1, human CD22 (d1 to d7 domain according to NP_001762.2) (human, UniProt P20273 20-687).
T1 construct: domain: d1 to d7 domain; also called human CD22-gly; Siglec-2
Kind of test: SPR; summary table, column 'CD22 KD (nM)'. A general note: In SPR one partner is held on a chip, and binding of the other changes the refractive index at the surface.
B1: the Kd is 2.5 nM.
Same read-out and setting: with B2 the figure was 30 nM.
On the same count and under the same terms, as for B3, the figure is 23 nM; as for B4, 0.7 nM.

The target of the next test is T2, cynomolgus monkey CD22 on B cells of cynomolgus PBMCs (cynomolgus monkey).
T2 construct: whole, on cells; also called cynomolgus CD22; Cyno CD22
Kind of test: flow cytometry; Alexa Fluor 647-labelled antibody, cynomolgus PBMCs. Here is the method:
(§1) Binding of humanized anti-CD22 antibodies to human or cynomolgus PBMCs was measured by flow cytometry. Trima residuals were received from Vitalant and cynomolgus monkey whole blood were received from BioIVT. Both were diluted 1:4 with Phosphate Buffered Saline (PBS, Gibco). Diluted blood was split into two tubes and underplayed with 15 mL Ficoll-Paque (GE Healthcare). Tubes were centrifuged for 30 minutes at 400×g. PBMCs were collected from the interface, washed and resuspended in FACS buffer (PBS with 0.5% Bovine Serum Albumin (Gibco)). 100K PBMCs from human and cynomolgus monkey were plated in 96-well plates and pelleted by centrifugation for five minutes at 400×g and stained at 4° C. in 100 μl Fixable Viability Dye eFluor 780 (Thermo Fisher) diluted 1:4000 in PBS. Cells were centrifuged and stained at 4° C. in 100 μl FACS buffer for 30 minutes containing FcR Blocking Reagent (Miltenyi Biotec), anti-CD20 and Alexa Fluor 647 conjugated CD22 binding antibodies, which were labeled using Molecular Probes Alexa Fluor 647 Protein Labeling kit (Molecular Probes) according to manufacturer's protocol. Cells were centrifuged and washed twice in 200 μl FACS buffer and fixed in 100 μl 0.5% paraformaldehyde. Cells were analyzed on Attune NxT Flow Cytometer (Thermo Fisher), with subsequent data analysis by Flowjo 10.7 (Treestar). Dead cells were excluded by gating on the eFluor 780-negative population. CD20+ cells were gated to identify B cells and median fluorescent intensity for CD22 was determined.
(§2) The fold increase in binding was determined by calculating the ratio of CD22 median fluorescent intensity on CD20⁺ over CD20⁻ cells.
Turning to B5, the “CD22: CD20+/CD20- (ratio of median fluorescent intensity)” value came to 16 fold.
Same read-out and setting: with B6 the figure was 11.2 fold; with B2, 1.6 fold.
The same measure, in the same setting: as for B3, the figure is 1.8 fold.

The next test addresses T1, human CD22 (d1 to d7 domain according …). Kind of test: SPR; mAb supernatant captured on protein A chip, human CD22 injected. Here is the method: Binding of humanized anti-CD22 antibodies to human CD22 was measured by surface plasmon resonance (SPR). For assessment of binding by SPR, biotinylated protein A (15 μg/mL) was immobilized to the surface of an NLC chip. 30 μL of mAb supernatant was added to 150 μL of PBS-T and captured over the protein A surface. Serial dilutions of human CD22-gly (300 nM, 3× dilution) were injected over the mAb-coated chips, and binding kinetics were determined. Chips were regenerated using 4:1 v/v of Pierce IgG elution butter/4M NaCl.
As for B5, the Kd was 6.85 nM, the koff came out at 0.00171 s⁻¹ and the kon is 250000 M⁻¹ s⁻¹.
In the case of B7, the koff came to 0.000146 s⁻¹ and the kon amounted to 223000 M⁻¹ s⁻¹.
For the molecule B8, the Kd is 23.3 nM.
B9 had a koff of 0.00146 s⁻¹ and a kon of 281000 M⁻¹ s⁻¹.
As to B2, the affinity, expressed as Kd, was 30.2 nM; the koff came out at 0.00601 s⁻¹; the kon was 199000 M⁻¹ s⁻¹.
For B3, in that order: 23.3 nM, 0.00519 s⁻¹ and 223000 M⁻¹ s⁻¹.

A further test has the same target. Nature of the test: SPR.
In the case of B10, the affinity, expressed as Kd, was 0.295 nM; the koff came out at 4.45e-05 s⁻¹; the kon came to 151000 M⁻¹ s⁻¹.
The like results for B11 were, in that order, 0.409 nM, 6.08e-05 s⁻¹ and 149000 M⁻¹ s⁻¹.
As for B12, the Kd was determined as 0.346 nM, the koff is 5.05e-05 s⁻¹ and the kon was determined as 146000 M⁻¹ s⁻¹.
The like results for B13 were, in that order, 0.643 nM, 7.13e-05 s⁻¹ and 111000 M⁻¹ s⁻¹.
In turn, B14 yielded a Kd of 0.573 nM, a koff of 8.32e-05 s⁻¹ and a kon of 145000 M⁻¹ s⁻¹.
For B15, in that order: 0.529 nM, 7.85e-05 s⁻¹ and 149000 M⁻¹ s⁻¹.
The like results for B16 were, in that order, 0.549 nM, 7.87e-05 s⁻¹ and 143000 M⁻¹ s⁻¹.
As for B17, the Kd stood at 0.644 nM, the koff turned out to be 7.24e-05 s⁻¹ and the kon turned out to be 112000 M⁻¹ s⁻¹.
The like results for B18 were, in that order, 0.293 nM, 4.29e-05 s⁻¹ and 147000 M⁻¹ s⁻¹.
The molecule B19 yielded a Kd of 0.468 nM.
The molecule B20 returned a Kd of 0.295 nM, a koff of 4.58e-05 s⁻¹ and a kon of 155000 M⁻¹ s⁻¹.
B21 showed a Kd of 0.452 nM, a koff of 6.8e-05 s⁻¹ and a kon of 151000 M⁻¹ s⁻¹.

A further test concerns the target T3, human CD22 on B cells of human PBMCs (human, UniProt P20273 20-847).
T3 construct: whole, on cells; also called CD22 on human B cells
Kind of test: flow cytometry; Alexa Fluor 647-labelled antibody, human PBMCs. Here is the method:
as §1, §2
(In general: In flow cytometry, cells or beads pass a laser one at a time.)
As to B5, the “CD22: CD20+/CD20- (ratio of median fluorescent intensity)” value worked out at 23.7 fold.
Same read-out and setting: as for B6, the figure is 23.6 fold.
On the same count and under the same terms, as for B2, the figure is 20.4 fold; as for B3, 20.3 fold.

As a reminder, the Kd is the equilibrium constant for the complex coming apart. The term koff denotes the first-order rate constant of dissociation. What is called kon is the second-order rate constant of association.
